Source: PMC9762789, “Chromone-based monoamine oxidase B inhibitor with potential iron-chelating activity for the treatment of Alzheimer’s disease” (Journal of Enzyme Inhibition and Medicinal Chemistry, 2022)

Protein sequences, listed by entry. Tags and fused reporters are not part of them.
UniProt P21397, whole entry: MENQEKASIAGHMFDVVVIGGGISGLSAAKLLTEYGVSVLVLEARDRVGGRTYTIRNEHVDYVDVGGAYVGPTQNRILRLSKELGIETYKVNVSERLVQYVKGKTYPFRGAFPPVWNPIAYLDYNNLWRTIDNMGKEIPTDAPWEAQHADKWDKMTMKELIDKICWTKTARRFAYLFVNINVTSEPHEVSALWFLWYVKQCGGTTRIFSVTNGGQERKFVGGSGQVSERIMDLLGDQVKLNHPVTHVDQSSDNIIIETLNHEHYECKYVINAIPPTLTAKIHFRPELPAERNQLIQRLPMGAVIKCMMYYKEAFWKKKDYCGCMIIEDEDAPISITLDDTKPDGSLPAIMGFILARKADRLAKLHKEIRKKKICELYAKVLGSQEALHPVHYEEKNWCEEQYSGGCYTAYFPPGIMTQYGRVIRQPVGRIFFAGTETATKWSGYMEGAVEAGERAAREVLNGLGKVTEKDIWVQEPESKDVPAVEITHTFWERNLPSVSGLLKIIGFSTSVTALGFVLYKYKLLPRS

Target: T1, Human MAO-A (Homo sapiens, UniProt P21397)
T1 construct: purchased Sigma-Aldrich
Test: hMAO-A inhibition assay
Type: biochemical
Experimental: Further, the inhibitory activity of compounds against hMAO-A isoform was tested and calculated as a selectivity index [Selectivity index (SI): IC50 (hMAO-A)/IC50 (hMAO-B)].
The reagents and enzymes (Human MAO-B and Human MAO-A) applied in this experiment were purchased from Sigma-Aldrich. According to the manuals, all components (substrate solution and enzyme solution) are diluted and placed aside for use. The detailed process has been mentioned in our early work[34].

In the case of `C#CCN(C)Cc1ccccc1` [Pargyline], the IC50 is reported as 4.184 ± 0.0071 µM.
